Assay results reported in paper PMC2720045 (Proteins, 2009).

The chains behind the UniProt entries cited, without tags or fusion partners. Residues count along the entry.
UniProt P00791, 60-385: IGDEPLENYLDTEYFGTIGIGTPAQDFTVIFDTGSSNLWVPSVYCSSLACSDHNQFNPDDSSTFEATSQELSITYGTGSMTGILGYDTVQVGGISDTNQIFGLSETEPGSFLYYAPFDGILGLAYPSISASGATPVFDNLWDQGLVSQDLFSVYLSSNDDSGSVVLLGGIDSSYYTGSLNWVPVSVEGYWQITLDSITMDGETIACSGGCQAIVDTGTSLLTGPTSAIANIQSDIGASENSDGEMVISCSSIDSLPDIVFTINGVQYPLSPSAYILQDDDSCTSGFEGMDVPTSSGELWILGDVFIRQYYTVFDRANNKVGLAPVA

Target: porcine pepsin (Sus scrofa, UniProt P00791)
Experiment: DSC of pepsin with inhibitors
Assay type: binding
Conditions: DSC pH 3; […] (APV) or 2-fold (Ac-PEP) molar excess; unliganded pepsin Tm 74.2

**Q.** Which ΔTm pepsin does the source give for acetyl pepstatin [Ac-PEP] here?
**A.** Its ΔTm pepsin is no less than 17 °C.
